The values below are quoted from earlier work in patent US9211291B2, “Treatment regimen utilizing neratinib for breast cancer” (WYETH LLC, priority 2009, dated 2015).

This series concerns HER2-positive breast cancer. As to conditions: cited from earlier work.

Several values for one entry are separate records, joined by “and”; a condition that tells them apart may be missing. Equal values may be shown once. Read-outs that look alike come from different tables or passages of the source.

In the case of “trastuzumab: humanized monoclonal antibody that selectively binds to the human erbB-2 receptor”, the disease-free-survival rate (at four years, Perez et al. 2007 and Slamon et al. 2006) was 85.9% and 82%; the disease-free-survival rate (at three years, Smith et al. Lancet 2007) is listed as 80.6%.
